By UniProt entry, the sequences of proteins in these tests, tags left out.
UniProt P25103, whole entry: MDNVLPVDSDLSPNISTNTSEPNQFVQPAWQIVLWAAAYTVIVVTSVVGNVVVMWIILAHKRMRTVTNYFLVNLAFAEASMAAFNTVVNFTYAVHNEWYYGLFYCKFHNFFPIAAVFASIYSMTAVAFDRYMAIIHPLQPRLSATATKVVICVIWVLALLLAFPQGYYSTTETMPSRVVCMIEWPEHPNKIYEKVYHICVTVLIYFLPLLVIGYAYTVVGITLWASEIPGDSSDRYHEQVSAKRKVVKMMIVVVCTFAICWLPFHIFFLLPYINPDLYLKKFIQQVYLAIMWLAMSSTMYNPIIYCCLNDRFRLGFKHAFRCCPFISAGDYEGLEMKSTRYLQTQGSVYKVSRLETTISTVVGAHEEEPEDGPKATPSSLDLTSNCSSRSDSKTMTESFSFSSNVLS

According to patent US7294630B2, “Piperazinyl piperidine tachykinin antagonists” (SmithKline Beecham Corporation, priority 2000, dated 2007):

Biological target: T1, recombinant human NK1 receptors expressed in Chinese Hamster Ovary (CHO) cell membranes (Homo sapiens, UniProt P25103)
T1 construct: expressed in transfected cells; host or cells: Chinese Hamster Ovary (CHO) cells, membrane preparation
Assay: NK1-receptor binding affinity, displacement of [3H]-substance P
Settings: average of at least two determinations, [3H]substance P displacement, read-out: pki (negative logarithm of the inhibition constant Ki) (converted)
Description: NK1-receptor binding affinity has been determined in vitro by the compounds' ability to displace [3H]—substance P (SP) from recombinant human NK1 receptors expressed in Chinese Hamster Ovary (CHO) cell membranes.
CHO cell membranes were prepared by using a modification of the method described by Dam T and Quirion R (Peptides, 7:855-864, 1986). Thus ligand binding was performed in 0.4 ml of 50 mM HEPES, pH 7.4, containing 3 mM MnCl2, 0.02% BSA, 0.5 nM [^3H]Substance P (30÷56 Ci/mmol, Amersham), a final membrane concentration of 25 μg of protein/ml, and the test compounds. The incubation proceeded at room temperature for 40 min. Non-specific binding was determined using excess of Substance P (1 μM) and represents about 6% of the total binding.
The affinity of the compound of the invention for NK1 receptor was determined using the NK1-receptor binding affinity method measuring in vitro by the compounds' ability to displace [3H]—substance P (SP) from recombinant human NK1 receptors expressed in Chinese Hamster Ovary (CHO) cell membranes. The affinity values are expressed as negative logarithm of the inhibition constant (Ki) of displacer ligands (pKi).

- Ki: 51.3 pM
Compound: CC(=O)N1CCN([C@H]2CCN(C(=O)N(C)[C@H](C)c3cc(C(F)(F)F)cc(C(F)(F)F)c3)[C@@H](c3ccc(F)cc3C)C2)CC1.Cl [Example 3, 4-(S)-(4-Acetyl-piperazin-1-yl)-2-(R)-(4-fluoro-2-methyl-phenyl)-piperidine-1-carboxylic acid, [1-(R)-(3,5-bis-trifluoromethyl-phenyl)-ethyl]-methylamide hydrochloride]
